From ChEMBL document CHEMBL5230108, “Computational methods-guided design of modulators targeting protein-protein interactions (PPIs)” (Eur J Med Chem, 2020)

Sequences of proteins named here, by UniProt entry; tags and fusion partners are left off. Residues count along the entry.
UniProt P25054, 2-2843 limits assumed: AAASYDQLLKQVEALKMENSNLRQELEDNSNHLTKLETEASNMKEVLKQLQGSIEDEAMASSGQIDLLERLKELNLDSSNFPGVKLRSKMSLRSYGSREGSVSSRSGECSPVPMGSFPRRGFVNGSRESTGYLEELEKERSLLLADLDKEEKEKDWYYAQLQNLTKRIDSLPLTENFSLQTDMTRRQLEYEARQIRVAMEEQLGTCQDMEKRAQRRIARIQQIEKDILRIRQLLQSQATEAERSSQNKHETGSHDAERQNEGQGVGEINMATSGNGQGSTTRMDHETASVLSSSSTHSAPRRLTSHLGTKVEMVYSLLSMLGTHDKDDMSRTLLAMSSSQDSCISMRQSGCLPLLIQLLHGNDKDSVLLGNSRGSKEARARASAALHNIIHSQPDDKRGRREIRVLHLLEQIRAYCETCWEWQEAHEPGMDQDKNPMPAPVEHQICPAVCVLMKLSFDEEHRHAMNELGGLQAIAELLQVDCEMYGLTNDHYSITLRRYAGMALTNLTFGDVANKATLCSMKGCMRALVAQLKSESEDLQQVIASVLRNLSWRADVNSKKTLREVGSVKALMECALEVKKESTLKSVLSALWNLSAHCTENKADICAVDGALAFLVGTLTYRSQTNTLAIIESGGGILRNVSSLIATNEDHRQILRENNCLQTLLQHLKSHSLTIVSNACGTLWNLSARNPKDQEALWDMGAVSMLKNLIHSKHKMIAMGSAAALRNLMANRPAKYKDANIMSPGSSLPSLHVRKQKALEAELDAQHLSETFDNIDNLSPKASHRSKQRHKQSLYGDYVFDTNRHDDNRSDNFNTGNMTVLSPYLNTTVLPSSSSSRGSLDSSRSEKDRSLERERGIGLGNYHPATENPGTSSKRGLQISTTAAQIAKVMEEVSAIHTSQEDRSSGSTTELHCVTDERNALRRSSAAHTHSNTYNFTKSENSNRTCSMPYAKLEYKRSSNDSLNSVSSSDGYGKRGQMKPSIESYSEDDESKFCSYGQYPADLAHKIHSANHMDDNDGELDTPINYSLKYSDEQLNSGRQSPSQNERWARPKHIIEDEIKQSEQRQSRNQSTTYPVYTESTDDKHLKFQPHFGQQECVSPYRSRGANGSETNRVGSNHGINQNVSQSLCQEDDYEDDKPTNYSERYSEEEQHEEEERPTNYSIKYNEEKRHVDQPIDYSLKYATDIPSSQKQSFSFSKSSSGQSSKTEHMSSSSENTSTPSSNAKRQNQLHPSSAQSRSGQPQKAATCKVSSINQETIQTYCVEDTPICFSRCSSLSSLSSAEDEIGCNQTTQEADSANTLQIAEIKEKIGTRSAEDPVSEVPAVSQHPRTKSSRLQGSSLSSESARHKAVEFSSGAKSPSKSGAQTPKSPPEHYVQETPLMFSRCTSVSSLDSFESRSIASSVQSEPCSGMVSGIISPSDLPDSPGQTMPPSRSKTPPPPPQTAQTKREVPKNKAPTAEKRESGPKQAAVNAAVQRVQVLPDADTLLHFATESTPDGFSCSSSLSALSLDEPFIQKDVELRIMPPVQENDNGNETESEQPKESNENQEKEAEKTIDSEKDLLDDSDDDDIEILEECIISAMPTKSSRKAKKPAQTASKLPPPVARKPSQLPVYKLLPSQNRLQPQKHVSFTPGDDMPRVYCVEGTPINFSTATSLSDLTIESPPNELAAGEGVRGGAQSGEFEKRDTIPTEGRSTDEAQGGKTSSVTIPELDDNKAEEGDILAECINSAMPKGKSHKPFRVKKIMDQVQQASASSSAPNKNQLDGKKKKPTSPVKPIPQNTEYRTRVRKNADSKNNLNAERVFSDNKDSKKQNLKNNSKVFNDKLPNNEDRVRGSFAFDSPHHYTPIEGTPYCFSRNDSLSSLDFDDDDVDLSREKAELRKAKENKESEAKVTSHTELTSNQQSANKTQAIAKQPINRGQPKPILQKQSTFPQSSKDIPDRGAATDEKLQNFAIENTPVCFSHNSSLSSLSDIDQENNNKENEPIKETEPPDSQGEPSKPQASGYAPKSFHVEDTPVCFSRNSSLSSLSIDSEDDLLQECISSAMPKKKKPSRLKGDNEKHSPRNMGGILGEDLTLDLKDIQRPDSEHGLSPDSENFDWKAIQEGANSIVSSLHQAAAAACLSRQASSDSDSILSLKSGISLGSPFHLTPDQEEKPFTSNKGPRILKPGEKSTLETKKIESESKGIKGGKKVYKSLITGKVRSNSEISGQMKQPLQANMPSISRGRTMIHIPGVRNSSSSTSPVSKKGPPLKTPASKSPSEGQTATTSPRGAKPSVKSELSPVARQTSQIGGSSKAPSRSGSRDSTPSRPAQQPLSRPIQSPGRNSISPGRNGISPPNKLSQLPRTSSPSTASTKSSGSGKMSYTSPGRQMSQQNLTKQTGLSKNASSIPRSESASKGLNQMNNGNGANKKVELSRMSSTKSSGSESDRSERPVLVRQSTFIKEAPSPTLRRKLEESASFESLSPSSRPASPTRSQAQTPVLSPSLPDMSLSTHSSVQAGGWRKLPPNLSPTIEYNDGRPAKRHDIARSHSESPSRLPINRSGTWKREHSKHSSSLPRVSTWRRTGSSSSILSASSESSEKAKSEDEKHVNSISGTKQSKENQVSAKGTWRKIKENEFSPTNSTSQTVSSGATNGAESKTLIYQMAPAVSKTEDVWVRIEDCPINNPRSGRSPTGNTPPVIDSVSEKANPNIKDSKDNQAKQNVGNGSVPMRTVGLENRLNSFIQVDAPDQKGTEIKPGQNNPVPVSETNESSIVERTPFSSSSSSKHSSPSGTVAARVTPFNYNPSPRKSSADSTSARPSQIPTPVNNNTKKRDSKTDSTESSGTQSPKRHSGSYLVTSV
UniProt Q03164, 2719-3969 limits assumed: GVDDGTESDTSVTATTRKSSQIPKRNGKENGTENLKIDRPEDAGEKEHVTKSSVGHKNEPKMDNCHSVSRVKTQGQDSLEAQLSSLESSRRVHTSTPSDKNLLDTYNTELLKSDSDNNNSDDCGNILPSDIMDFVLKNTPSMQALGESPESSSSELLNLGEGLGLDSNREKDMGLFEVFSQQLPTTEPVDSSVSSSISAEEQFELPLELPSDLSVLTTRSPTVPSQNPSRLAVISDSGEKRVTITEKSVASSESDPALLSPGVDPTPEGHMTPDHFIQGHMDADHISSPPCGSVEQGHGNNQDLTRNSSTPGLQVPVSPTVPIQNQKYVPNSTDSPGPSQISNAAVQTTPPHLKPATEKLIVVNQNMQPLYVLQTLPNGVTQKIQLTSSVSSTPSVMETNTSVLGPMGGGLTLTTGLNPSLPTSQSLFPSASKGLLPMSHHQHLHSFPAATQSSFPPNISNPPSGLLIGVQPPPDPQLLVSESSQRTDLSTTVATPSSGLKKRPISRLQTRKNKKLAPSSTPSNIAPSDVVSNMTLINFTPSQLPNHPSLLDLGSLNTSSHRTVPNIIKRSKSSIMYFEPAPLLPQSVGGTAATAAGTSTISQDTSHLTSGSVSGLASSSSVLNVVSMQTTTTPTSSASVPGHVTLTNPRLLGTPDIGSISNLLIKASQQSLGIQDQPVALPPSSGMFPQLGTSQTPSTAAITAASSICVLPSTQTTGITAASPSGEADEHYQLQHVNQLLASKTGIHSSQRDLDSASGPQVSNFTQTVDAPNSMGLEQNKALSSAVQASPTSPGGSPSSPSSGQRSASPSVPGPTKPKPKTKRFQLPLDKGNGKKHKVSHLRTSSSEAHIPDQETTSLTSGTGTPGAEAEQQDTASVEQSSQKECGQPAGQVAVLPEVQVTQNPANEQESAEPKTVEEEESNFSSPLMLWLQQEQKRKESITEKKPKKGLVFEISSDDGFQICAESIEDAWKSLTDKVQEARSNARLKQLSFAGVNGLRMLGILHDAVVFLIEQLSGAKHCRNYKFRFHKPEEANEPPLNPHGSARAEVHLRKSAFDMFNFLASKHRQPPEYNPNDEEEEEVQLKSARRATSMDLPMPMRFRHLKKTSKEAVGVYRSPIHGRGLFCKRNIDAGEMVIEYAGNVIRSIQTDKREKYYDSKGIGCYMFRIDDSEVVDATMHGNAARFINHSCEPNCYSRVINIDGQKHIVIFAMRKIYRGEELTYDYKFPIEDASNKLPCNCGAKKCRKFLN

The compounds below were run against T1, Adenomatous polyposis coli protein (Homo sapiens, UniProt P25054) (assay: Binding affinity to APC (unknown origin) assessed as inhibition constant by ITC analysis).
`CCC(C)C(NC(=O)C(C)NC(=O)[C@H](CC(C)C)NC(=O)[C@H](CCC(N)=O)NC(=O)[C@H](CCC(=O)O)NC(=O)CNC(=O)CNC(C)=O)C(N)=O` (stereo partly drawn) gave a Ki of 44.6 µM.

Each compound was assayed against Histone-lysine N-methyltransferase 2A (Homo sapiens, UniProt Q03164) (assay: Competitive binding affinity to full length wild type MLL (unknown origin)).
Compound `CC[C@H](C)[C@H](NC(=O)[C@H](CC(=O)O)NC(=O)[C@H](CO)NC(=O)CCNC(=S)Nc1ccc(-c2c3ccc(=O)cc-3oc3cc(O)ccc23)c(C(=O)O)c1)C(=O)N[C@@H](CSCc1ccccc1)C(=O)N[C@@H](CC(=O)O)C(=O)N[C@@H](Cc1ccccc1)C(=O)N[C@H](C(=O)N[C@@H](CC(C)C)C(=O)N[C@@H](CCCCN)C(=O)N[C@@H](CC(N)=O)C(=O)N[C@@H](Cc1ccc(O)cc1)C(=O)N1CCC[C@H]1C(N)=O)C(C)C` has a Kd of 8.3 µM and a Ki of 58 µM. With `CC[C@H](C)[C@H](NC(=O)[C@H](CC(=O)O)NC(=O)[C@H](CO)NC(=O)CCNC(=S)Nc1ccc(-c2c3ccc(=O)cc-3oc3cc(O)ccc23)c(C(=O)O)c1)C(=O)N[C@@H](CSCc1ccccc1)C(=O)N[C@@H](CC(=O)O)C(=O)N[C@@H](Cc1ccccc1C)C(=O)N[C@H](C(=O)N[C@@H](CC(C)C)C(=O)N[C@@H](CCCCN)C(=O)N[C@@H](CC(N)=O)C(=O)N[C@@H](Cc1ccc(O)cc1)C(=O)N1CCC[C@H]1C(=O)O)[C@@H](C)CC` the Kd was 3.3 µM and the Ki was 22 µM. `CC[C@H](C)[C@H](NC(=O)[C@H](CC(=O)O)NC(=O)[C@H](CO)NC(=O)CCNC(=S)Nc1ccc(-c2c3ccc(=O)cc-3oc3cc(O)ccc23)c(C(=O)O)c1)C(=O)N[C@@H](CSCc1ccccc1)C(=O)N[C@@H](CC(=O)O)C(=O)N[C@@H](Cc1ccccc1)C(=O)N[C@H](C(=O)N[C@@H](CC(C)C)C(=O)N[C@@H](CCCCN)C(=O)N[C@@H](CC(N)=O)C(=O)N[C@@H](Cc1ccc(O)cc1)C(=O)N1CCC[C@H]1C(=O)O)[C@@H](C)CC` gave a Kd of 6 µM and a Ki of 24 µM. In the case of `CC[C@H](C)[C@H](NC(=O)[C@H](CC(=O)O)NC(=O)[C@H](CO)NC(=O)CCNC(=S)Nc1ccc(-c2c3ccc(=O)cc-3oc3cc(O)ccc23)c(C(=O)O)c1)C(=O)N[C@@H](CSCc1ccccc1)C(=O)N[C@@H](CC(=O)O)C(=O)N[C@@H](Cc1ccccc1)C(=O)N[C@H](C(=O)N[C@@H](CC(C)C)C(=O)N[C@@H](CCCCN)C(=O)N[C@@H](CC(N)=O)C(=O)N[C@H](C(=O)N1CCC[C@H]1C(N)=O)[C@@H](C)O)C(C)C`, the Kd is reported as > 15 µM. `CC[C@H](C)[C@H](NC(=O)[C@H](CC(=O)O)NC(=O)[C@H](CO)NC(=O)CCNC(=S)Nc1ccc(-c2c3ccc(=O)cc-3oc3cc(O)ccc23)c(C(=O)O)c1)C(=O)N[C@@H](CSCc1ccccc1)C(=O)N[C@@H](CC(=O)O)C(=O)N[C@@H](Cc1ccccc1)C(=O)N[C@H](C(=O)N[C@@H](CC(C)C)C(=O)N[C@@H](CCCCN)C(=O)N[C@@H](CC(N)=O)C(=O)N[C@@H](Cc1ccc(O)cc1)C(=O)N1CCC[C@H]1C(N)=O)[C@@H](C)CC` gave a Kd of 7.3 µM and a Ki of 32 µM. In the case of `CC[C@H](C)[C@H](NC(=O)[C@H](CC(=O)O)NC(=O)[C@H](CO)NC(=O)[C@@H]1CCCN1C(=O)[C@H](CC(C)C)NC(=O)[C@@H](NC(=O)[C@H](CC(N)=O)NC(=O)CNC(=O)[C@H](CS)NC(=O)[C@H](CC(=O)O)NC(C)=O)[C@@H](C)CC)C(=O)N[C@@H](CCSC)C(=O)N[C@@H](CC(=O)O)C(=O)N[C@@H](Cc1ccccc1)C(=O)N[C@H](C(=O)N[C@@H](CC(C)C)C(=O)N[C@@H](CCCCN)C(=O)N[C@@H](CC(N)=O)C(=O)N[C@H](C(=O)N1CCC[C@H]1C(=O)O)[C@@H](C)O)C(C)C`, the Kd is reported as 1 µM and the Ki is reported as 3 µM.

These compounds were tested against T1, Adenomatous polyposis coli protein (assay: Binding affinity to APC (unknown origin) assessed as dissociation constant by ITC analysis).
With `CCC(C)C(NC(=O)C(C)NC(=O)[C@H](CC(C)C)NC(=O)[C@H](CCC(N)=O)NC(=O)[C@H](CCC(=O)O)NC(=O)CNC(=O)CNC(C)=O)C(N)=O` (stereo partly drawn) the Kd was 0.036 µM.
